The structures appear in SMILES notation.

Chains of the proteins cited; added tags and fusions are not shown.
UniProt P41143, whole entry, looked up: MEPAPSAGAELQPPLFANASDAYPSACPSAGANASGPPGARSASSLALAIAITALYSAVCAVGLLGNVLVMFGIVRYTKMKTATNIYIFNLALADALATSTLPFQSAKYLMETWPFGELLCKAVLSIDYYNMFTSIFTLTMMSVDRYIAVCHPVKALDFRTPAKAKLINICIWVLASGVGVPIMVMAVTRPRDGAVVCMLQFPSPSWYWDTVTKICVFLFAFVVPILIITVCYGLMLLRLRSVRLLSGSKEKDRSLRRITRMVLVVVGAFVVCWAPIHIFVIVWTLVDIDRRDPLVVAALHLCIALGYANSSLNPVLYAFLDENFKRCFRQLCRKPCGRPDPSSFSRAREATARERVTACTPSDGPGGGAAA

One experiment concerns the target T1, Delta-type opioid receptor (Homo sapiens, UniProt P41143). Kind of experiment: ASSAY_NAME: ChEMBL_146883 (CHEMBL751658) DESCRIPTION: Inhibitory activity against Opioid receptor delta 1 of guinea pig was determined by using [3H]DADLE radioligand.
For the molecule `CN(C(=O)Cc1ccc(Cl)c(Cl)c1)[C@H]1CCCC[C@@]12CCCN2C`, the IC50 (commonly the concentration at which inhibition is half-maximal) is above 10 µM.

In the case of `CN1CCC[C@@]12CCCC[C@@H]2NC(=O)Cc1ccc(Cl)c(Cl)c1`, the IC50 was found to be 5.8 µM.

In turn, `CN1CCC[C@@]12CCCC[C@@H]2NS(=O)(=O)c1ccc(Br)cc1` came in with a 50% inhibitory concentration (IC50) above 10 µM.

For the molecule `CN1CCC[C@@]12CCCC[C@@H]2NC(=O)Cc1ccc(Br)cc1`, the IC50 is above 10 µM.

Another experiment deals with T1, Delta-type opioid receptor. The experiment in a line: ASSAY_NAME: ChEBML_146883 DESCRIPTION: Inhibitory activity against Opioid receptor delta 1 of guinea pig was determined by using [3H]DADLE radioligand.
With `CN1CC[C@]23CCCC[C@H]2[C@H]1Cc1ccc(O)cc13`, the IC50 was 0.0029 µM.

`CN1CCC[C@@]12CCCC[C@@H]2NC(=O)CCc1ccccc1`: the IC50 was above 10 µM.
